Results as given in US9694016B2 (Novartis AG, priority 2013, dated 2017).

Amino acid sequences for entries named in this document (tags omitted).
UniProt P04049, whole entry Y340E/Y341E: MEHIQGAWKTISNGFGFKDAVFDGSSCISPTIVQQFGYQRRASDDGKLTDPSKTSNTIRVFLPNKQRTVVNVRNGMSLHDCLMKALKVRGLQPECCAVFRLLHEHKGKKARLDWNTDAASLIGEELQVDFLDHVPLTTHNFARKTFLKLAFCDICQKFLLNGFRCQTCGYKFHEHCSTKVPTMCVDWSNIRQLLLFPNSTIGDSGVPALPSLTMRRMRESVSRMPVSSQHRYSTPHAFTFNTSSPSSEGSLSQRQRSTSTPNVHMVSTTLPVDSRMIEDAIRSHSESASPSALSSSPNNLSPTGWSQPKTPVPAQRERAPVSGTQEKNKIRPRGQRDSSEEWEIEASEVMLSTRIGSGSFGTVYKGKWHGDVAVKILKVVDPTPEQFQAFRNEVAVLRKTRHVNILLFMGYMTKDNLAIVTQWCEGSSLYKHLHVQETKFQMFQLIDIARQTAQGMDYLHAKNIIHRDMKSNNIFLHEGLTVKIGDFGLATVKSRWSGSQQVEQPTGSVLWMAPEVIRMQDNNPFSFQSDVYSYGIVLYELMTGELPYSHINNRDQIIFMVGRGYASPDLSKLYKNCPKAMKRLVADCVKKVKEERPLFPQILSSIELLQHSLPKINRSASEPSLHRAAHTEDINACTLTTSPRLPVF

Biological target: C-Raf FL (full-length C-Raf protein, Y340E and Y341E activating mutations) (Homo sapiens (Human), UniProt P04049, Y340E/Y341E)
Assay type: biochemical
Conditions: read-out: c-Raf FL IC-50
[1] = Table 2, AlphaScreen, 1 hour reaction
[2] = AlphaScreen, 60 min pre-incubation, 1 hour reaction

Cn1cc(-c2cc(NC(=O)c3ccnc(C(F)(F)F)c3)cnc2Cl)cc(N2CCOCC2)c1=O [Example 404, N-(2-chloro-1′-methyl-5′-morpholino-6′-oxo-1′,6′-dihydro-[3,3′-bipyridin]-5-yl)-2-(trifluoromethyl)isonicotinamide]
IC50 [1]: 1.2 nM

Cn1cc(-c2cc(NC(=O)c3ccnc(C(C)(F)F)c3)cnc2Cl)cc(N2CCOCC2)c1=O [Example 405, N-(2-chloro-1′-methyl-5′-morpholino-6′-oxo-1′,6′-dihydro-[3,3-bipyridin]-5-yl)-2-(1,1-difluoroethyl)isonicotinamide]
IC50 [1]: 1.3 nM

Cn1cc(-c2cc(NC(=O)c3cccc(C(F)(F)F)c3)cnc2Cl)cc(N2CCOCC2)c1=O [Example 407, N-(2-chloro-1′-methyl-5′-morpholino-6′-oxo-1′,6′-dihydro-[3,3-bipyridin]-5-yl)-3-(trifluoromethyl)benzamide]
IC50 [1]: 0.5 nM

COc1ccc(C(=O)Nc2cnc(Cl)c(-c3cc(N4CCOCC4)c(=O)n(C)c3)c2)cc1C(F)(F)F [Example 408, N-(2-chloro-1′-methyl-5′-morpholino-6′-oxo-1′,6′-dihydro-[3,3-bipyridin]-5-yl)-4-methoxy-3-(trifluoromethyl)benzamide]
IC50 [1]: 2.6 nM

Cn1cc(-c2cc(NC(=O)c3cccc(C(F)F)c3)ccc2Cl)cc(N2CCOCC2)c1=O [Example 412, N-(4-chloro-3-(1-methyl-5-morpholino-6-oxo-1,6-dihydropyridin-3-yl)phenyl)-3-(difluoromethyl)benzamide]
IC50 [1]: 0.2 nM

Cn1cc(-c2cc(NC(=O)c3ccnc(C(F)(F)F)c3)ccc2Cl)cc(N2CCOCC2)c1=O [Example 413, N-(4-chloro-3-(1-methyl-5-morpholino-6-oxo-1,6-dihydropyridin-3-yl)phenyl)-2-(trifluoromethyl)isonicotinamide]
IC50 [1]: 0.09 nM

Cn1cc(-c2cc(NC(=O)c3ccnc(C(C)(F)F)c3)ccc2Cl)cc(N2CCOCC2)c1=O [Example 414, N-(4-chloro-3-(1-methyl-5-morpholino-6-oxo-1,6-dihydropyridin-3-yl)phenyl)-2-(1,1-difluoroethyl)isonicotinamide]
IC50 [1]: 0.3 nM

Cn1cc(-c2cc(NC(=O)c3cccc(C(F)F)c3)ccc2F)cc(N2CCOCC2)c1=O [Example 417, 3-(difluoromethyl)-N-(4-fluoro-3-(1-methyl-5-morpholino-6-oxo-1,6-dihydropyridin-3-yl)phenyl)benzamide]
IC50 [1]: 0.6 nM

Cn1cc(-c2cc(NC(=O)c3ccnc(C(F)(F)F)c3)ccc2F)cc(N2CCOCC2)c1=O [Example 418]
IC50 [1]: 0.9 nM

Cn1cc(-c2cc(NC(=O)c3ccnc(C(C)(F)F)c3)ccc2F)cc(N2CCOCC2)c1=O [Example 419]
IC50 [1]: 1.2 nM

CC(C)c1cc(C(=O)Nc2ccc(Cl)c(-c3cc(N4CCOCC4)c(=O)n(C)c3)c2)ccn1 [Example 421, N-(4-chloro-3-(1-methyl-5-morpholino-6-oxo-1,6-dihydropyridin-3-yl)phenyl)-2-isopropylisonicotinamide]
IC50 [1]: 0.2 nM

Cn1cc(-c2cc(C(=O)Nc3cccc(C(F)(F)F)c3)cnc2Cl)cc(N2CCOCC2)c1=O [Example 423, 2-chloro-1′-methyl-5′-morpholino-6′-oxo-N-(3-(trifluoromethyl)phenyl)-1′,6′-dihydro-[3,3′-bipyridine]-5-carboxamide]
IC50 [1]: 1.9 nM

Cn1cc(-c2cc(C(=O)Nc3cccc(C(C)(C)O)c3)cnc2Cl)cc(N2CCOCC2)c1=O [Example 424, 2-chloro-N-(3-(2-hydroxypropan-2-yl)phenyl)-t-methyl-5′-morpholino-6′-oxo-1′,6′-dihydro-[3,3′-bipyridine]-5-carboxamide]
IC50 [1]: 14.3 nM

Cn1cc(-c2cc(C(=O)Nc3cccc(C(F)F)c3)ccc2Cl)cc(N2CCOCC2)c1=O [Example 426, 4-chloro-N-(3-(difluoromethyl)phenyl)-3-(1-methyl-5-morpholino-6-oxo-1,6-dihydropyridin-3-yl)benzamide]
IC50 [1]: 0.7 nM

Cn1cc(-c2cc(C(=O)Nc3cccc(C(C)(C)C#N)c3)ccc2Cl)cc(N2CCOCC2)c1=O [Example 427, 4-chloro-N-(3-(2-cyanopropan-2-yl)phenyl)-3-(1-methyl-5-morpholino-6-oxo-1,6-dihydropyridin-3-yl)benzamide]
IC50 [1]: 1.2 nM

Cc1cn(-c2cc(NC(=O)c3ccc(C)c(-c4cc(N5CCOCC5)c(=O)n(C)c4)c3)cc(C(F)(F)F)c2)cn1 [Example 428, 4-methyl-N-(3-(4-methyl-1H-imidazol-1-yl)-5-(trifluoromethyl)phenyl)-3-(1-methyl-5-morpholino-6-oxo-1,6-dihydropyridin-3-yl)benzamide]
IC50 [1]: 3.3 nM

Cc1ccc(C(=O)Nc2ccccc2)cc1-c1cc(N2CCOCC2)c(=O)n(C)c1 [Example 429, 4-methyl-3-(1-methyl-5-morpholino-6-oxo-1,6-dihydropyridin-3-yl)-N-phenylbenzamide]
IC50 [1]: 6.7 nM

Cc1ccc(C(=O)Nc2cccc(C(F)F)c2)cc1-c1cc(N2CCOCC2)c(=O)n(C)c1 [Example 430, N-(3-(difluoromethyl)phenyl)-4-methyl-3-(1-methyl-5-morpholino-6-oxo-1,6-dihydropyridin-3-yl)benzamide]
IC50 [1]: 0.6 nM

Cc1ccc(C(=O)Nc2cccc(C(C)(C)C#N)c2)cc1-c1cc(N2CCOCC2)c(=O)n(C)c1 [Example 431, N-(3-(2-cyanopropan-2-yl)phenyl)-4-methyl-3-(1-methyl-5-morpholino-6-oxo-1,6-dihydropyridin-3-yl)benzamide]
IC50 [1]: 1.1 nM

Cc1ccc(C(=O)Nc2ccccn2)cc1-c1cc(N2CCOCC2)c(=O)n(C)c1 [Example 432, 4-methyl-3-(1-methyl-5-morpholino-6-oxo-1,6-dihydropyridin-3-yl)-N-(pyridin-2-yl)benzamide]
IC50 [1]: 23.2 nM

Cc1ccc(C(=O)Nc2cccnc2)cc1-c1cc(N2CCOCC2)c(=O)n(C)c1 [Example 433, 4-methyl-3-(1-methyl-5-morpholino-6-oxo-1,6-dihydropyridin-3-yl)-N-(pyridin-3-yl)benzamide]
IC50 [1]: 55.8 nM

CCc1cccc(NC(=O)c2ccc(C)c(-c3cc(N4CCOCC4)c(=O)n(C)c3)c2)c1 [Example 435, N-(3-ethylphenyl)-4-methyl-3-(1-methyl-5-morpholino-6-oxo-1,6-dihydropyridin-3-yl)benzamide]
IC50 [1]: 0.7 nM

Cc1ccc(C(=O)Nc2cccc(C(C)C)c2)cc1-c1cc(N2CCOCC2)c(=O)n(C)c1 [Example 436, N-(3-isopropylphenyl)-4-methyl-3-(1-methyl-5-morpholino-6-oxo-1,6-dihydropyridin-3-yl)benzamide]
IC50 [2]: 0.9 nM

Cc1nc(-c2cccc(NC(=O)c3ccc(C)c(-c4cc(N5CCOCC5)c(=O)n(C)c4)c3)c2)no1 [Example 438, 4-methyl-N-(3-(5-methyl-1,2,4-oxadiazol-3-yl)phenyl)-3-(1-methyl-5-morpholino-6-oxo-1,6-dihydropyridin-3-yl)benzamide]
IC50 [2]: 5.7 nM

Cc1ccc(C(=O)Nc2cccc(C(C)(C)O)c2)cc1-c1cc(N2CCOCC2)c(=O)n(C)c1 [Example 439, N-(3-(2-hydroxypropan-2-yl)phenyl)-4-methyl-3-(1-methyl-5-morpholino-6-oxo-1,6-dihydropyridin-3-yl)benzamide]
IC50 [2]: 2.7 nM

COc1cccc(NC(=O)c2ccc(C)c(-c3cc(N4CCOCC4)c(=O)n(C)c3)c2)c1 [Example 440, N-(3-methoxyphenyl)-4-methyl-3-(1-methyl-5-morpholino-6-oxo-1,6-dihydropyridin-3-yl)benzamide]
IC50 [2]: 22.5 nM

Cc1ccc(C(=O)Nc2cccc(OC(F)(F)F)c2)cc1-c1cc(N2CCOCC2)c(=O)n(C)c1 [Example 441, 4-methyl-3-(1-methyl-5-morpholino-6-oxo-1,6-dihydropyridin-3-yl)-N-(3-(trifluoromethoxy)phenyl)benzamide]
IC50 [2]: 9.3 nM

COc1cncc(NC(=O)c2ccc(C)c(-c3cc(N4CCOCC4)c(=O)n(C)c3)c2)c1 [Example 442, N-(5-methoxypyridin-3-yl)-4-methyl-3-(1-methyl-5-morpholino-6-oxo-1,6-dihydropyridin-3-yl)benzamide]
IC50 [2]: 20.2 nM

Cc1ncc(C(=O)Nc2cccc(C(F)(F)F)c2)cc1-c1cc(N2CCOCC2)c(=O)n(C)c1 [Example 443, 1′,2-dimethyl-5′-morpholino-6′-oxo-N-(3-(trifluoromethyl)phenyl)-1′,6′-dihydro-[3,3′-bipyridine]-5-carboxamide]
IC50 [2]: 1.7 nM

Cc1ncc(C(=O)Nc2cccc(C(C)(C)C#N)c2)cc1-c1cc(N2CCOCC2)c(=O)n(C)c1 [Example 444, N-(3-(2-cyanopropan-2-yl)phenyl)-1′,2-dimethyl-5′-morpholino-6′-oxo-1′,6′-dihydro-[3,3′-bipyridine]-5-carboxamide]
IC50 [2]: 14.6 nM

Cc1ncc(C(=O)Nc2cccc(C(F)F)c2)cc1-c1cc(N2CCOCC2)c(=O)n(C)c1 [Example 445, N-(3-(difluoromethyl)phenyl)-1′,2-dimethyl-5′-morpholino-6′-oxo-1′,6′-dihydro-[3,3′-bipyridine]-5-carboxamide]
IC50 [2]: 5.7 nM

Cc1ncc(C(=O)Nc2cccc(C(C)(C)O)c2)cc1-c1cc(N2CCOCC2)c(=O)n(C)c1 [Example 446, N-(3-(2-hydroxypropan-2-yl)phenyl)-1′,2-dimethyl-5′-morpholino-6′-oxo-1′,6′-dihydro-[3,3′-bipyridine]-5-carboxamide]
IC50 [2]: 29.1 nM

Cc1ccc(NC(=O)c2cccc(C(F)(F)F)c2)cc1-c1cc(N2CCOCC2=O)c(=O)n(C)c1 [Example 451, N-(4-methyl-3-(1-methyl-6-oxo-5-(3-oxomorpholino)-1,6-dihydropyridin-3-yl)phenyl)-3-(trifluoromethyl)benzamide]
IC50 [2]: 14.1 nM

Cc1ccc(NC(=O)c2ccnc(N(C)C)c2)cc1-c1cc(N2CCOCC2)c(=O)n(C)c1 [Example 452, 2-(dimethylamino)-N-(4-methyl-3-(1-methyl-5-morpholino-6-oxo-1,6-dihydropyridin-3-yl)phenyl)isonicotinamide]
IC50: 0.5 nM

Like-named read-outs stand apart in the source and are kept apart here.
